Experiment [1] deals with Oxysterols receptor LXR-alpha (Homo sapiens) (UniProt Q13133). Briefly: Antagonist activity against human LXRalpha at 1 uM incubated for 24 hrs by luciferase reporter gene assay. On the technique in general: Reporter assays use an easily measured gene product as a stand-in for the process of interest.
Experiment [2] has as its target T1, Peroxisome proliferator-activated receptor delta (Homo sapiens) (UniProt Q03181).
T1 sequence (whole entry): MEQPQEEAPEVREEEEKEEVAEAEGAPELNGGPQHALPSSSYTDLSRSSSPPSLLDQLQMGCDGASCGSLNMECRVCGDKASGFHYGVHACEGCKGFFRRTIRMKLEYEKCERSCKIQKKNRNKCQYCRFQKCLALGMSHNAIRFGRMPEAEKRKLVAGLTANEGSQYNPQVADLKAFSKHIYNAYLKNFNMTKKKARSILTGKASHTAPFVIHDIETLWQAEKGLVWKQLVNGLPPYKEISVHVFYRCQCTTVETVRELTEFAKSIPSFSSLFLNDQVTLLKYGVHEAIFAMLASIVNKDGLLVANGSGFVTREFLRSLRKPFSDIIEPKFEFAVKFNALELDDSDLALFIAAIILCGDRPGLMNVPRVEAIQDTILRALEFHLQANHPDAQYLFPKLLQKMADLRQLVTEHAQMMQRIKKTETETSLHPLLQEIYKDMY
Briefly: Antagonist activity against human PPARdelta assessed as inhibition of GW501516-induced luciferase expression at 1 uM incubated for 24 hrs by luciferase reporter gene assay.

Sequences of proteins named here, by UniProt entry; tags and fusion partners are left off. A change or cut given only in a name is not applied to a line headed by its entry.
UniProt Q13133, whole entry: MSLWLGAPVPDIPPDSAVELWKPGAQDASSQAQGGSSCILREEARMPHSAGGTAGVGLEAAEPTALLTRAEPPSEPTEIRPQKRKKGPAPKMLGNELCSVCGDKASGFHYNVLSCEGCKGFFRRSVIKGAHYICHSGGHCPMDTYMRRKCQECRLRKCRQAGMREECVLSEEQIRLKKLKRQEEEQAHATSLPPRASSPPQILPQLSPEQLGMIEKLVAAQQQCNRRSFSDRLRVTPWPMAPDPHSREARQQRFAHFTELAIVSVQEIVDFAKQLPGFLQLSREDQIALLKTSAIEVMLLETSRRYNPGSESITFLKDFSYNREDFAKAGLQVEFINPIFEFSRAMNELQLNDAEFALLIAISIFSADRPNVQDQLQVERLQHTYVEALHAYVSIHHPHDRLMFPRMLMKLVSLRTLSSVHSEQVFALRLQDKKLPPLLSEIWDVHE
UniProt P55055, whole entry: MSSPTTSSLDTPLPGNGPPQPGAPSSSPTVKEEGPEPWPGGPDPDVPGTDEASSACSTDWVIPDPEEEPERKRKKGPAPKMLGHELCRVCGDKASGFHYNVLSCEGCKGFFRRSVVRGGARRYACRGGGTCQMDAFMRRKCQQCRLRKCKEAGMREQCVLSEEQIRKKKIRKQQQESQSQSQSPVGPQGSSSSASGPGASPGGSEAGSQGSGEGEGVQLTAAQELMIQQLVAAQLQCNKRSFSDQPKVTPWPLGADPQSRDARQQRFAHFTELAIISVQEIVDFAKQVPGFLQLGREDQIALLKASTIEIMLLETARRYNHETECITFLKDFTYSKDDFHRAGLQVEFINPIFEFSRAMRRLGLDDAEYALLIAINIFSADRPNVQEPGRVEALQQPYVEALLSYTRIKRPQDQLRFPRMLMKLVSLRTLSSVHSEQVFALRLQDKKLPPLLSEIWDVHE
UniProt P10276, whole entry: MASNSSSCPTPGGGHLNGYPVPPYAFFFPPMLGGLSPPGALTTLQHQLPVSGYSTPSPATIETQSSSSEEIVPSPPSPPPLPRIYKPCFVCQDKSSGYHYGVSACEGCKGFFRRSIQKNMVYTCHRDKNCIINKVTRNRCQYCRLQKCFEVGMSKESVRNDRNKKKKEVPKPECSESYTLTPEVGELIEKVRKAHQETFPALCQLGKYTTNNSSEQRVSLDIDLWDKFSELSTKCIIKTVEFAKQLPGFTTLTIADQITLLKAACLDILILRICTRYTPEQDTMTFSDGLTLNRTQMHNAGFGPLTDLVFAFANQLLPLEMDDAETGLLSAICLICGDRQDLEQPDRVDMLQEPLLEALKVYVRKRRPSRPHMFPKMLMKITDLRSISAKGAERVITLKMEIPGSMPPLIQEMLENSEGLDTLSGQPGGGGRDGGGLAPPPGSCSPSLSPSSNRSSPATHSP
UniProt P37231: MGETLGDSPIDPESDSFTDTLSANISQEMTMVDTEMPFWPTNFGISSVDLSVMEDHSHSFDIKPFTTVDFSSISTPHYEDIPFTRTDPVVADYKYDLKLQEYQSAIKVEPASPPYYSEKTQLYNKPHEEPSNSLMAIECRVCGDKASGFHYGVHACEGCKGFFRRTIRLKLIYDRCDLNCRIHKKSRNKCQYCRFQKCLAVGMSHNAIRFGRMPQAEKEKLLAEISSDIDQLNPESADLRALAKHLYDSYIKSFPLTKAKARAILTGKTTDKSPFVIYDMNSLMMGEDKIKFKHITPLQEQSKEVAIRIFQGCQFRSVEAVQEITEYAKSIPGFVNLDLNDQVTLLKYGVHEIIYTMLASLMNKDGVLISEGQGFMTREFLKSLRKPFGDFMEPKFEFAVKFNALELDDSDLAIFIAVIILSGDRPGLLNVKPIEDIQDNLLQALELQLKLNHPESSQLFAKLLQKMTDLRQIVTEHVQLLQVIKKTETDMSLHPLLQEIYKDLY

Experiment [3] concerns the target T2, Bile acid receptor (Mus musculus) (UniProt Q60641).
T2 sequence (whole entry): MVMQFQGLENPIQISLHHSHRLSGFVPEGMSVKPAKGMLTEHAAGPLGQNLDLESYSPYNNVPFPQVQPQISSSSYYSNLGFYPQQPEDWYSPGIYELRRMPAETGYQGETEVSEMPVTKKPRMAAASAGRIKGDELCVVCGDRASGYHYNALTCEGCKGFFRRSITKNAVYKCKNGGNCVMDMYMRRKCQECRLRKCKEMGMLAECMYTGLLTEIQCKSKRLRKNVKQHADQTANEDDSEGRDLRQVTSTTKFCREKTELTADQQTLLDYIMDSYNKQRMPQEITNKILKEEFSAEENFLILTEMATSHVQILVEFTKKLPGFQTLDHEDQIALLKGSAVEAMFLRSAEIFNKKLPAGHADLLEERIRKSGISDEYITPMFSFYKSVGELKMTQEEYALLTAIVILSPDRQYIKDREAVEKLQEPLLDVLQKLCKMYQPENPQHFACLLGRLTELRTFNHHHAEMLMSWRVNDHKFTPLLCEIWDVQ
Nature of the experiment: In vivo antagonist activity at FXR in C57BL/6N mouse ileum assessed as downregulation of Fgf15 mRNA expression at 10 to 30 mg/kg, po administered once daily for 7 days and measured after 25 hrs of last dose by qRT-PCR analysis. The class given is functional, organism-based. Particulars: dose 10-30 mg/kg, time 7.0 day. For orientation: In qPCR the cycle at which signal appears reflects the starting amount.

Experiment [4] deals with T1, Peroxisome proliferator-activated receptor delta (Homo sapiens). Nature of the experiment: Antagonist activity against human PPARdelta at 1 uM incubated for 24 hrs by luciferase reporter gene assay.
Experiment [5] deals with Oxysterols receptor LXR-beta (Homo sapiens) (UniProt P55055). Nature of the experiment: Antagonist activity against human LXRbeta at 1 uM incubated for 24 hrs by luciferase reporter gene assay.
In experiment [6] the target is T3, Peroxisome proliferator-activated receptor alpha (Homo sapiens) (UniProt Q07869).
T3 sequence (whole entry): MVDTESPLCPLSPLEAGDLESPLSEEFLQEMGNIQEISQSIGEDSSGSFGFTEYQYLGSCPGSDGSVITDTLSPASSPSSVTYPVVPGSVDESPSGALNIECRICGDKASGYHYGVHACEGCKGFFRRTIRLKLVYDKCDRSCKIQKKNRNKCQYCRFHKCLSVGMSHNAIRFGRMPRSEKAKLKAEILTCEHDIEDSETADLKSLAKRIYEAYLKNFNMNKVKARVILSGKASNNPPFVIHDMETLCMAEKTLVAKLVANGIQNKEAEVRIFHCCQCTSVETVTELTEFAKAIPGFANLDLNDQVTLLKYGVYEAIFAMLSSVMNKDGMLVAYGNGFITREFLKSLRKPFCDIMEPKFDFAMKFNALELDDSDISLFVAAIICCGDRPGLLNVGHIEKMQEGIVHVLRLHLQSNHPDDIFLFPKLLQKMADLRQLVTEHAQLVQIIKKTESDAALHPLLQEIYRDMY
Briefly: Antagonist activity against human PPARalpha at 1 uM incubated for 24 hrs by luciferase reporter gene assay.

For experiment [7], the target named is T4, Retinoic acid receptor RXR-alpha (Homo sapiens) (UniProt P19793).
T4 sequence (whole entry): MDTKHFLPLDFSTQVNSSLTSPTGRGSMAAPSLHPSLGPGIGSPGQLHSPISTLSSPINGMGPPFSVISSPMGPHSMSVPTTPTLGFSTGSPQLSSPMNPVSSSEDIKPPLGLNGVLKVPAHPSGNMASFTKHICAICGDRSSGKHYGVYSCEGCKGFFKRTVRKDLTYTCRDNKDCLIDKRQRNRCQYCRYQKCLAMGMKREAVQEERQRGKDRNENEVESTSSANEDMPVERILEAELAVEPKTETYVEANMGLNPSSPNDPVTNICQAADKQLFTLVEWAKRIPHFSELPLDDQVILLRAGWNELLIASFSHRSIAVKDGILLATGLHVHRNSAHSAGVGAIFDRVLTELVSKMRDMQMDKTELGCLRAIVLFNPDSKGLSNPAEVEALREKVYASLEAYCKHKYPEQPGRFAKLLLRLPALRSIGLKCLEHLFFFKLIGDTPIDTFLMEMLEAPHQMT
Nature of the experiment: Antagonist activity against human RXR alpha at 1 uM incubated for 24 hrs by luciferase reporter gene assay.

Experiment [8] addresses Oxysterols receptor LXR-alpha (Homo sapiens) (UniProt Q13133). Nature of the experiment: Antagonist activity against human LXRalpha assessed as inhibition of TO901317-induced luciferase expression at 1 uM incubated for 24 hrs by luciferase reporter gene assay.
Experiment [9] deals with T5, Vitamin D3 receptor (Homo sapiens) (UniProt P11473).
T5 sequence (whole entry): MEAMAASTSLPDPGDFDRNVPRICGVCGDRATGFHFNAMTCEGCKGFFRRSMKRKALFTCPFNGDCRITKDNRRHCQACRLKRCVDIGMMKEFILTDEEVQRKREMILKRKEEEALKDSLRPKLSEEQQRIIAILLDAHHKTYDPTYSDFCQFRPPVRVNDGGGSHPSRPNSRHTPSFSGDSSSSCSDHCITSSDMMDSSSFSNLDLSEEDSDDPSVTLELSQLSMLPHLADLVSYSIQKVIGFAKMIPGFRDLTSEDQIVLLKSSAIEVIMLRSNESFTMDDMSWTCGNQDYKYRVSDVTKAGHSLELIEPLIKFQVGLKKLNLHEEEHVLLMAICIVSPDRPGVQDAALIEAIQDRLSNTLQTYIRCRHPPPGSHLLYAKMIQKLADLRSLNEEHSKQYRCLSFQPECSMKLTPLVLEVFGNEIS
Briefly: Antagonist activity against human VDR at 1 uM incubated for 24 hrs by luciferase reporter gene assay.

Experiment [10] has as its target T4, Retinoic acid receptor RXR-alpha (Homo sapiens). Briefly: Antagonist activity against human RXR alpha assessed as inhibition of 9-cis-RA-induced luciferase expression at 1 uM incubated for 24 hrs by luciferase reporter gene assay.
Experiment [11] addresses Retinoic acid receptor alpha (Homo sapiens) (UniProt P10276). Nature of the experiment: Antagonist activity against human RARalpha assessed as inhibition of 9-cis-RA-induced luciferase expression at 1 uM incubated for 24 hrs by luciferase reporter gene assay.
The target of experiment [12] is T6, G-protein coupled bile acid receptor 1 (Homo sapiens) (UniProt Q8TDU6).
T6 sequence (whole entry): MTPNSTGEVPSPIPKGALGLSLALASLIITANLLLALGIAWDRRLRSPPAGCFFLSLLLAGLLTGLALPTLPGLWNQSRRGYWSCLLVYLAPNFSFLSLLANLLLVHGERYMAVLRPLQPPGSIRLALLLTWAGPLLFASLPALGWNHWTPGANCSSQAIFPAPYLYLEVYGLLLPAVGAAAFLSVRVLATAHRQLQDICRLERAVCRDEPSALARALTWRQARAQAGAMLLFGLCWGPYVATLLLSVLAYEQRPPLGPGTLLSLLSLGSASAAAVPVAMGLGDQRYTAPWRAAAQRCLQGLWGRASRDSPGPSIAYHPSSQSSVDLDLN
Nature of the experiment: Antagonist activity against human TGR5 assessed as inhibition of LCA-induced luciferase expression at 1 uM incubated for 24 hrs by luciferase reporter gene assay.

Experiment [13] deals with T3, Peroxisome proliferator-activated receptor alpha (Homo sapiens). Briefly: Antagonist activity against human PPARalpha assessed as inhibition of GW7647-induced luciferase expression at 1 uM incubated for 24 hrs by luciferase reporter gene assay.
Experiment [14] addresses T6, G-protein coupled bile acid receptor 1 (Homo sapiens). Nature of the experiment: Antagonist activity against human TGR5 at 1 uM incubated for 24 hrs by luciferase reporter gene assay.
Experiment [15] has as its target T2, Bile acid receptor (Mus musculus). Nature of the experiment: In vivo antagonist activity at FXR in C57BL/6N mouse ileum assessed as upregulation of Asbt mRNA expression at 10 to 30 mg/kg, po administered once daily for 7 days and measured after 25 hrs of last dose by qRT-PCR analysis. The class given is functional, organism-based. Particulars: dose 10-30 mg/kg, time 7.0 day.

Experiment [16] addresses Retinoic acid receptor alpha (Homo sapiens) (UniProt P10276). Nature of the experiment: Antagonist activity against human RARalpha at 1 uM incubated for 24 hrs by luciferase reporter gene assay.
Experiment [17] concerns the target T2, Bile acid receptor (Mus musculus). Briefly: In vivo antagonist activity at FXR in C57BL/6N mouse liver assessed as downregulation of Bsep mRNA expression at 10 to 30 mg/kg, po administered once daily for 7 days and measured after 25 hrs of last dose by qRT-PCR analysis. The class given is functional, organism-based. Conditions: dose 10-30 mg/kg, time 7.0 day.

The target in experiment [18] is Peroxisome proliferator-activated receptor gamma (Homo sapiens) (UniProt P37231). Nature of the experiment: Antagonist activity against human PPARgamma assessed as inhibition of GW1929-induced luciferase expression at 1 uM incubated for 24 hrs by luciferase reporter gene assay.
The target is the same in experiment [19]. Briefly: Antagonist activity against human PPARgamma at 1 uM incubated for 24 hrs by luciferase reporter gene assay.
The target of experiment [20] is T2, Bile acid receptor (Mus musculus). Nature of the experiment: In vivo antagonist activity at FXR in C57BL/6N mouse liver assessed as downregulation of Shp mRNA expression at 10 to 30 mg/kg, po administered once daily for 7 days and measured after 25 hrs of last dose by qRT-PCR analysis. The class given is functional, organism-based. Conditions: dose 10-30 mg/kg, time 7.0 day.

The target is the same in experiment [21]. Briefly: In vivo antagonist activity at FXR in C57BL/6N mouse liver assessed as downregulation of Cyp7a1 mRNA expression at 10 to 30 mg/kg, po administered once daily for 7 days and measured after 25 hrs of last dose by qRT-PCR analysis. The class given is functional, organism-based. Particulars: dose 10-30 mg/kg, time 7.0 day.
In experiment [22] the target is T5, Vitamin D3 receptor (Homo sapiens). Nature of the experiment: Antagonist activity against human VDR assessed as inhibition of 1,25-OH-VD3-induced luciferase expression at 1 uM incubated for 24 hrs by luciferase reporter gene assay.
The target of experiment [23] is T2, Bile acid receptor (Mus musculus). Briefly: In vivo antagonist activity at FXR in C57BL/6N mouse ileum assessed as downregulation of Shp mRNA expression at 10 to 30 mg/kg, po administered once daily for 7 days and measured after 25 hrs of last dose by qRT-PCR analysis. Conditions: dose 10-30 mg/kg, time 7.0 day. The class given is functional, organism-based.

Experiment [24] concerns the target Oxysterols receptor LXR-beta (Homo sapiens) (UniProt P55055). Briefly: Antagonist activity against human LXRbeta assessed as inhibition of TO901317-induced luciferase expression at 1 uM incubated for 24 hrs by luciferase reporter gene assay.

The source made the active and inactive calls. The calls are words filed in the database; no cut-off is given here.

Among the data in ChEMBL document CHEMBL4680376, “Discovery of Orally Active and Nonsteroidal Farnesoid X Receptor (FXR) Antagonist with Propensity for Accumulation and Responsiveness in Ileum” (ACS Med Chem Lett, 2021) are Activity values, retold here.

With `CC(C)C(=O)N1CCC(C[C@@H](c2nc3ccc(F)cc3n2C2CC2)N2C(=O)CN(c3ccc(Oc4ccc(F)cc4)cc3)C2=O)CC1`, the result in [1], in experiment [2], in [4], in [5], in experiment [6] and in experiment [7] was inactive. The result in experiment [8], in experiment [9], in experiment [10], in experiment [11], in experiment [12] and in experiment [13] was inactive. Also, the outcome in experiment [14], in experiment [16], in experiment [17], in experiment [18], in [19] and in experiment [20] was inactive. In addition, the result in [21], in experiment [22] and in experiment [24] was inactive. Moreover, the result in experiment [3], in experiment [15] and in [23] was Active.
